The results in this text go back to PubChem BioAssay AID751 (NMMLSC, 2007).

Only a part is listed here, and it is no random draw. The source made the active and inactive calls.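 Rule for the calls: active = inhibition of disassembly above about 33% (limit read from the data); inconclusive = likely self-fluorescent, control bead median signal at least 40; inactive = the rest.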

This assay concerns 26S proteasome (yeast, GFP-tagged, ATP-dependent disassembly). Put plainly: blockers of yeast 26S proteasome breakdown – biochemical, bead-based flow cytometry, GFP-tagged proteasome, primary screen (AID 751).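 Note: plate controls were ATP control with full disassembly for no effect and ATP-gamma-S intact proteasomes for full effect; higher percent means more bead fluorescence retained so stronger block of disassembly.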 The note with it: anti-FLAG beads, stronger effect = higher value, concentration not given here.
`Fc1ccccc1NC1CCN(Cc2ccccc2)CC1`: the inhibition of disassembly was inactive: 0.6%.

`N#CC1(Nc2ccccc2)CCN(CCc2ccccc2)CC1`: the inhibition of disassembly was inactive: -2.39%.
